Assay: Relative clinical effect of ACH (dexamethasone equivalent)
Text: The relative amounts of ACH and TSH-releasing hormones may be determined according to the particular dosage form, the disease to be treated and other factors. Generally speaking, the ratio is about 1 (dexamethasone equivalent): 0.05 to 5, advantageously 0.05 to 2, and especially 0.1 to 1. The preferred ratio in each dosage form is; in the case of injections, about 1 (dexamethasone equivalent): 0.05 to 1, advantageously 0.1 to 1; in the case of oral preparations, about 1 (dexamethasone equivalent): 1 to 5, advantageously 1 to 2; and in the case of topical preparations, infusions and implants, about 1 (dexamethasone equivalent): 0.5 to 5, advantageously 0.5 to 2. The `dexamethasone equivalent` is an index number representing the relative clinical effect of any ACH with the effect of dexamethasone being taken as unity.

C[C@@H]1C[C@H]2[C@@H]3C[C@H](F)C4=CC(=O)C=C[C@]4(C)[C@@]3(F)[C@@H](O)C[C@]2(C)[C@@]1(O)C(=O)CO [Flumethasone, 6α, 9α-difluoro-16α-methylprednisolone]
Equivalent (dexamethasone equivalent): 0.2
